Shown are actives, neighbours in structure and some others; about 1.9% of the full set was active somewhere.
ERp5 block: inhibitors of human ERp5. Q15084. ERp5 insulin aggregation, absorbance 650 nm, 90 min. inhibition, % at 9.99 µM. 350,000 tested, 0.05% active;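 active = mean replicate inhibition above about 25%, with every replicate also reaching it, limit read from the data, passing the limit was not always enough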
FGF22 binding: FGF22 (human) thermal shift binding; activity (Tm shift, normalised), % at 9.99 µM; AID 651658; Q9HCT0; recombinant FGF22 thermal shift, SYPRO orange fluorescence; percent of sucrose octasulfate shift, DMSO zero; 340,000 tested, 1.5% active;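 active = mean Tm shift, scaled 0 neutral to 100 positive control, at about 1.3% or above, every replicate too, limit read from the data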
ARNT-TACC3 inh: disruptors of human ARNT/TACC3 interaction | inhibition, % at 9.99 µM | 390,000 tested, 0.66% active | AlphaScreen His-ARNT PAS-B/GST-TACC3 binding, luminescence; TACC3 fragment carries E629A point mutation | AID 623870;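 active = mean inhibition of replicates at least 50% and at least half of replicates each reaching 50%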;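 also: 0% = complete ARNT plus TACC3 wells and 100% = ARNT alone without TACC3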
PglD inh: PglD (C. jejuni) enzyme inhibition; 360,000 tested, 0.098% active; inhibition, % at 12.5 µM; purified PglD enzyme, DTNB colorimetric CoA detection; AID 602405; in the data active = inhibition above about 16%, passing the limit was not always enough
Yeast UUG start: modulators of start codon recognition fidelity in yeast; AID 602363; activity score, % at 18.7 µM; S. cerevisiae UUG-firefly luciferase reporter, luminescence/redox ratio; actives 0.13% (n = 350,000);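 active = replicate mean at a twofold rise or more, about +100% in these data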;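 note: firefly luciferase made from a UUG start codon reports start codon fidelity; reporter light over untreated wells divided by growth signal over untreated wells; some hits fall short of that in this replicate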
PDI inh: PDI (human) enzyme inhibition; P07237; PDI insulin aggregation turbidity, A650, 90 min; inhibition, % at 10 µM; 350,000 tested, 0.052% active;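 active = mean inhibition across replicates of 30% or more, whatever share of single replicates reach that level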
ARNT Alpha ctr: counter-screen for ARNT/TACC3 inhibitors: AlphaScreen artifacts; His-ARNT PASB-GST AlphaScreen artifact counter-screen, luminescence; AID 651705; AC50, µM (series often up to 68 µM), for inactives: top-dose activity change, negative = signal decrease; shares compounds with ARNT-TACC3 inh; 1,200 tested, 50% active;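 active = every separate test run was called active for a drop in luminescence, with AC50 within twice the top valid dose, actives reach about 71 µM in these data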
* hit, by the source's call.

How did C#CCOCCOCCOCCNc1nc(N2CCN(C(=O)[C@H]([C@@H](C)CC)n3cc([C@@H](N)CO)nn3)CC2)nc(N2CCN(C(=O)[C@H](Cc3ccc(O)cc3)n3cc([C@@H](N)CC(C)C)nn3)CC2)n1 do in these assays?
ERp5 block: -1.0; FGF22 binding: -0.3; ARNT-TACC3 inh: 9.4; PglD inh: -1.1; Yeast UUG start: 51.8; PDI inh: 11.5

How did O=C(C1CC1)N1CCCCN2[C@H](CO)[C@@H](c3ccc(C#CC4(O)CCCC4)cc3)[C@@H]2C1 do in these assays?
ERp5 block: 0.0; FGF22 binding: -0.5; ARNT-TACC3 inh: 3.5; PglD inh: -2.0; Yeast UUG start: 18.3

What do the screens show for `C[C@H](NC(=O)C[C@@H]1CC[C@@H](NC(=O)Nc2ccc3c(c2)OCO3)[C@H](CO)O1)c1ccccc1`?
ERp5 block: -0.8; FGF22 binding: 0.4; ARNT-TACC3 inh: 1.8; PglD inh: 6.5; Yeast UUG start: 16.4

What do the screens show for `Clc1nssc1=Nc1nncs1`?
ERp5 block: -5.9; FGF22 binding: 0.1; ARNT-TACC3 inh: 35.8*; PglD inh: 1.1; Yeast UUG start: -3.3; PDI inh: -1.9; ARNT Alpha ctr: -14.8%

How did Clc1nssc1=Nc1ccc(Br)cc1 do in these assays?
ERp5 block: -1.4; FGF22 binding: 0.1; ARNT-TACC3 inh: -6.8; PDI inh: -4.0

What do the screens show for `COc1ccc(NCc2ccccc2[N+](=O)[O-])cc1OC`?
ARNT-TACC3 inh: 11.3; PDI inh: -1.5

Results for COc1cc2c(cc1OC)C(Cc1ccccc1[N+](=O)[O-])=NCC2 ?
ERp5 block: 6.8; FGF22 binding: -0.2; ARNT-TACC3 inh: 39.3*; PDI inh: 4.2; ARNT Alpha ctr: -10.2%

How did CCOc1ccc(C2=Nn3c(nnc3-c3ccccn3)SC2)cc1 do in these assays?
ARNT-TACC3 inh: 63.2*; PglD inh: -3.0; Yeast UUG start: -30.4; PDI inh: 4.9; ARNT Alpha ctr: -26.9%

What do the screens show for `c1ccc(N=Nc2ccc3cccccc2-3)cc1`?
ERp5 block: -0.1; FGF22 binding: 0.0; ARNT-TACC3 inh: 56.8*; PglD inh: -2.8; Yeast UUG start: -28.4; PDI inh: -4.1; ARNT Alpha ctr: 3.21µM*

How did O=C(N/N=C/c1ccco1)c1cnccn1 do in these assays?
ERp5 block: -2.4; FGF22 binding: 0.0; ARNT-TACC3 inh: 13.7; PglD inh: 3.4; Yeast UUG start: -15.7; PDI inh: 0.5

What do the screens show for `O=C(N/N=C/C=C/c1ccco1)c1cnccn1`?
ERp5 block: -0.9; FGF22 binding: -0.3; ARNT-TACC3 inh: 61.6*; PglD inh: 5.0; Yeast UUG start: 1.9; PDI inh: -6.2; ARNT Alpha ctr: -8.9%

What do the screens show for `Cc1noc(C)c1S(=O)(=O)Nc1ccc2c(c1)C(=O)N([C@H](C)CO)C[C@@H](C)[C@@H](CN(C)S(=O)(=O)c1ccccc1)O2`?
ERp5 block: 0.2; FGF22 binding: 1.1; ARNT-TACC3 inh: 2.7; PglD inh: -0.9; Yeast UUG start: -0.1

What do the screens show for `CN1CCN(C(=O)c2cccc(-c3cc(O)c4ncccc4c3)c2)CC1`?
ERp5 block: 3.4; FGF22 binding: 0.2; ARNT-TACC3 inh: 74.6*; PglD inh: -0.3; Yeast UUG start: -4.6; PDI inh: -0.6; ARNT Alpha ctr: 17µM*

How did CN1CCN(c2cc(-c3cc(O)c4ncccc4c3)ccn2)CC1 do in these assays?
ERp5 block: 18.5; FGF22 binding: 0.0; ARNT-TACC3 inh: 69.1*; PglD inh: -0.6; Yeast UUG start: -36.0; PDI inh: 0.9; ARNT Alpha ctr: 10.9µM*

What do the screens show for `COc1ccccc1C(=O)N1C[C@H]2[C@@H](c3ccccc31)[C@@H](CO)N2C(=O)Nc1ccccc1`?
ERp5 block: -1.6; FGF22 binding: 0.3; ARNT-TACC3 inh: 5.8; PglD inh: -1.4; Yeast UUG start: 12.3

What do the screens show for `C[C@H](CO)N1C[C@H](C)[C@H](CN(C)C(=O)NC2CCCC2)Oc2ncc(C#CC3CCCCC3)cc2C1=O`?
ERp5 block: 2.8; FGF22 binding: -1.0; ARNT-TACC3 inh: 4.6; PglD inh: 3.7; Yeast UUG start: 20.5

Compounds from the list above that have a halogen, in the order listed:
What do the screens show for `Clc1nssc1=Nc1nncs1`?
ERp5 block: -5.9; FGF22 binding: 0.1; ARNT-TACC3 inh: 35.8*; PglD inh: 1.1; Yeast UUG start: -3.3; PDI inh: -1.9; ARNT Alpha ctr: -14.8%

How did Clc1nssc1=Nc1ccc(Br)cc1 do in these assays?
ERp5 block: -1.4; FGF22 binding: 0.1; ARNT-TACC3 inh: -6.8; PDI inh: -4.0
